# Antibody variant affinities, Ab-14 light chain, assay 1

Source: Engelhart et al. 2022 (doi:10.1038/s41597-022-01779-4), MIT Lincoln Laboratory and A-Alpha Bio; data file from the FLAb repository.

Antigen: PDVDLGDISGINAS, a 14-residue peptide of the SARS-CoV-2 spike HR2 region.

The variants keep the heavy chain, the linker and the frameworks of Ab-14 (scFv order VH, three GGGGS repeats, VL).
VH: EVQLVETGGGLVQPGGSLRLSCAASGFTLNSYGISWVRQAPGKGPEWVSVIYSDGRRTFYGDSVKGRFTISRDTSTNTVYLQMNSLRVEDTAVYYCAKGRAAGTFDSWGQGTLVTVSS
VL: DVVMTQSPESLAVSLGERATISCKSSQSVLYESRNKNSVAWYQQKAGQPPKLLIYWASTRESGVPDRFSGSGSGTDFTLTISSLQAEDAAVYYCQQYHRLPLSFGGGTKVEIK

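Phage display of a naive human antibody library on the peptide gave the parent. In library AAYL50, one, two or three CDR residues were substituted; doubles and triples were drawn at random. In AlphaSeq, yeast of one mating type display the scFv and yeast of the other type display the target. Binding brings cells together so that they mate, and sequencing counts the barcode pairs among the diploids. The ratio of observed to expected reads was calibrated, replicate by replicate, on BCL2-family standards whose Kd was known from biolayer interferometry. Each pool was mated in three replicate cultures.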

Changes read parent residue, position, new residue, counted from the first residue of the VL shown. Scale: log10 of Kd in nM, estimated from mating counts; low values are strong binders. A mean of the replicates is given; it leaves out those without a signal. A pair that was not seen in that replicate is written "n.d."; this usually means weak binding, but a binder can also be missed. Three control strains display no target. For library AAYL50, 18% of the pairings with them gave a signal, with a median of 4.19 and one signal in twenty below 2.99, so weak values seen in few replicates may be background. The control count says in how many pairings with the empty strains this scFv gave a signal, with their mean in brackets.

changes | replicates, log10 nM | mean log10 Kd (nM) | empty controls
S25T/E61N | 0.79 / 0.81 / 0.67 | 0.76 | 2/9 (4.42)
R34C/Q95C | 3.63 / 2.78 / 3.39 | 3.27 | 2/9 (4.18)
Y31M/Q96A/H98C | 0.68 / 0.93 / 0.88 | 0.83 | 4/9 (4.00)
K24F/S38Q/A40L | n.d. / n.d. / n.d. | n.d. | 2/9 (3.84)
P101L | 1.52 / 1.53 / 1.53 | 1.53 | 1/9 (3.63)
S26L/Q27L/P101G | 3.89 / n.d. / n.d. | 3.89 | 1/9 (4.02)
S38G/E61L/P101N | n.d. / n.d. / n.d. | n.d. | 0/9
K24F/Q27R/Y31R | n.d. / n.d. / n.d. | n.d. | 3/9 (3.67)
Y31D/S58F/Q96I | 1.79 / 2.23 / 2.53 | 2.18 | 3/9 (3.34)
T59R/S103P | n.d. / 3.73 / n.d. | 3.73 | 0/9
S26G/S33D/W56F | 0.58 / 0.69 / 0.50 | 0.59 | 1/9 (3.30)
L30D/S62E/L100H | 4.34 / n.d. / 3.50 | 3.92 | 2/9 (4.44)
S25D/K36E/L102A | 2.75 / 2.44 / 4.86 | 3.35 | 0/9
K24N/W56T/E61Q | 1.61 / 1.64 / 1.53 | 1.60 | 2/9 (4.64)
K24V/S33M/S103I | n.d. / 2.48 / 2.55 | 2.52 | 1/9 (4.39)
S25C/V29S/Q95M | 4.50 / n.d. / n.d. | 4.50 | 6/9 (4.43)
K24D/S26A/S58G | 4.35 / 4.12 / 4.57 | 4.35 | 8/9 (4.74)
A40N/L100I/L102W | n.d. / n.d. / n.d. | n.d. | 0/9
V29F/S103G | 1.23 / 1.41 / 1.53 | 1.39 | 2/9 (3.67)
V29E/V39F/R99Y | n.d. / n.d. / n.d. | n.d. | 0/9
S25F/T59F/Q96G | 1.40 / 1.48 / 1.55 | 1.48 | 8/9 (4.52)
S26D/Q95N/Q96K | -0.18 / 0.44 / -0.03 | 0.08 | 1/9 (2.52)
K24F/A40N/E61P | n.d. / n.d. / 3.12 | 3.12 | 0/9
S25Y/S38H/L102F | n.d. / n.d. / 3.96 | 3.96 | 0/9
S38E/T59R/H98A | n.d. / 3.00 / 4.64 | 3.82 | 1/9 (3.54)
E32T/R34W/W56F | 5.24 / 2.81 / 4.74 | 4.27 | 0/9
S38V/V39N/L100A | n.d. / n.d. / n.d. | n.d. | 1/9 (3.96)
R60G/Q96L | n.d. / n.d. / 4.64 | 4.64 | 1/9 (3.49)
K36D/A57Y/T59W | n.d. / n.d. / 4.58 | 4.58 | 3/9 (4.45)
Q27M/E32K/Q95V | 5.07 / 4.39 / 4.68 | 4.72 | 5/9 (5.04)
V29M/L30G/E61H | 1.86 / 1.88 / 1.91 | 1.88 | 3/9 (4.07)
Y31C/Q96R | n.d. / 4.65 / n.d. | 4.65 | 2/9 (3.51)
Y97P/H98S | 0.37 / 0.57 / 0.82 | 0.59 | 0/9
S25V/S38E/S58G | 1.70 / 1.72 / 1.80 | 1.74 | 0/9
E32L/Y97W/L102H | 1.84 / 1.96 / 2.02 | 1.94 | 2/9 (3.68)
K24C/R34Y/K36C | n.d. / 3.34 / 3.29 | 3.32 | 3/9 (4.73)
K24E/R99P/S103E | n.d. / n.d. / n.d. | n.d. | 0/9
S28F/Q96A | 1.31 / 1.62 / 1.40 | 1.44 | 3/9 (3.50)
S25Y/K36F/R60G | n.d. / n.d. / n.d. | n.d. | 0/9
S26K/S33C | n.d. / 4.45 / n.d. | 4.45 | 1/9 (3.55)
L30K/S33W/A57R | 4.60 / 3.02 / n.d. | 3.81 | 0/9
S26V/K36C | 2.71 / 2.75 / 5.17 | 3.55 | 2/9 (4.12)
W56S/S62P | 0.03 / 0.24 / 0.02 | 0.10 | 8/9 (4.97)

Picked from the list: the 4 lowest averages where every replicate gave a value.

changes | replicates, log10 nM | mean log10 Kd (nM) | empty controls
S26D/Q95N/Q96K | -0.18 / 0.44 / -0.03 | 0.08 | 1/9 (2.52)
W56S/S62P | 0.03 / 0.24 / 0.02 | 0.10 | 8/9 (4.97)
S26G/S33D/W56F | 0.58 / 0.69 / 0.50 | 0.59 | 1/9 (3.30)
Y97P/H98S | 0.37 / 0.57 / 0.82 | 0.59 | 0/9